Test results: ChEMBL document CHEMBL4627384, “l-Thyroxin and the Nonclassical Thyroid Hormone TETRAC Are Potent Activators of PPARγ” (J Med Chem, 2020)

Amino acid sequences for entries named in this document (tags omitted). A change or cut given only in a name is not applied to a line headed by its entry.
UniProt P37231: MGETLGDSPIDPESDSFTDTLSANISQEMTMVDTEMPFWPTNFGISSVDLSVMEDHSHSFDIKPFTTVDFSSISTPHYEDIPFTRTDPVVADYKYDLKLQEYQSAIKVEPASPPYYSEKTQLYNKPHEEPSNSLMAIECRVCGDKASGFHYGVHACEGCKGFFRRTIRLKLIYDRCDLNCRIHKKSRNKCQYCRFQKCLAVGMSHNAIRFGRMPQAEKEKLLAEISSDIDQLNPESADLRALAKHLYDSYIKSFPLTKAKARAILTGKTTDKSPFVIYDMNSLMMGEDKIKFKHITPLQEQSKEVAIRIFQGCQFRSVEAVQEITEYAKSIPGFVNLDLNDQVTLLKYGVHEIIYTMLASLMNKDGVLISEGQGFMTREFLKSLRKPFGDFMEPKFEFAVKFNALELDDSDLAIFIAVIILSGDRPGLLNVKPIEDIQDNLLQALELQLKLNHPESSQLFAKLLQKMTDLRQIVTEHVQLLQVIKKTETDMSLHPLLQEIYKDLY

Experiments:
[1] = target: T1, Retinoic acid receptor RXR-alpha (Homo sapiens) (UniProt P19793); assay: Agonist activity at recombinant human pFA-CMV fused RXRalpha LBD expressed in HEK293T cells transfected with pFR-luciferase plasmid and pRL-SV40 plasmid at 10 uM incubated for 14 to 16 hrs by dual glo luciferase reporter gene assay; assay type: cell-based; conditions: HEK-293T
T1 sequence (whole entry): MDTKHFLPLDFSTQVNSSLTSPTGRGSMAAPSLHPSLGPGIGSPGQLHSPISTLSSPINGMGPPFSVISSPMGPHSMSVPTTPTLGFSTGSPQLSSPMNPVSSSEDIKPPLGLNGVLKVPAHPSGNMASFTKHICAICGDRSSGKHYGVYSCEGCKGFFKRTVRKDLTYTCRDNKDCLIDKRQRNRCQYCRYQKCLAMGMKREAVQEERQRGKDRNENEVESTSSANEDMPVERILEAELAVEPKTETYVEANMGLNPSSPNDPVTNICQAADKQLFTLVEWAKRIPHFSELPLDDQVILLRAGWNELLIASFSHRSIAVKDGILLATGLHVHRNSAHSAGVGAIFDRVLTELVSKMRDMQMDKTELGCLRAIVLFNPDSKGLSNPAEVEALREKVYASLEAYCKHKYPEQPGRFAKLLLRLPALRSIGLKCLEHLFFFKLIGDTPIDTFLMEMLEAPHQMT

[2] = target: T2, Retinoic acid receptor RXR-beta (Homo sapiens) (UniProt P28702); assay: Agonist activity at recombinant human pFA-CMV fused RXRbeta LBD expressed in HEK293T cells transfected with pFR-luciferase plasmid and pRL-SV40 plasmid at 10 uM incubated for 14 to 16 hrs by dual glo luciferase reporter gene assay; assay type: cell-based; conditions: HEK-293T
T2 sequence (whole entry): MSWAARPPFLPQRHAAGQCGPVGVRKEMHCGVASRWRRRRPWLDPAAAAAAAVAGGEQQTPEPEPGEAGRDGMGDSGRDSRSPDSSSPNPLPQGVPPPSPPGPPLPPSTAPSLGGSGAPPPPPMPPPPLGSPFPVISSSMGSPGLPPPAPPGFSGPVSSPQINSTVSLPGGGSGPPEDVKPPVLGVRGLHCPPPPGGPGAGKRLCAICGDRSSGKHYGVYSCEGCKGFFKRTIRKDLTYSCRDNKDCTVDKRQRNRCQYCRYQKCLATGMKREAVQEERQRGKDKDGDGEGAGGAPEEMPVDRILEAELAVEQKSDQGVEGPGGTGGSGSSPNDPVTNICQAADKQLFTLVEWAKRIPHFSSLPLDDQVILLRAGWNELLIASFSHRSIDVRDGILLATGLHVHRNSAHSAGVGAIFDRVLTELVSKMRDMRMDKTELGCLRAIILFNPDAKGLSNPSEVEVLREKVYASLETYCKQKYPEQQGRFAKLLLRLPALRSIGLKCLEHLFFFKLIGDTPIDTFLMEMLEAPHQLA

[3] = target: T3, Retinoic acid receptor RXR-gamma (Homo sapiens) (UniProt P48443); assay: Agonist activity at recombinant human pFA-CMV fused RXRgamma LBD expressed in HEK293T cells transfected with pFR-luciferase plasmid and pRL-SV40 plasmid at 10 uM incubated for 14 to 16 hrs by dual glo luciferase reporter gene assay; assay type: cell-based; conditions: HEK-293T
T3 sequence (whole entry): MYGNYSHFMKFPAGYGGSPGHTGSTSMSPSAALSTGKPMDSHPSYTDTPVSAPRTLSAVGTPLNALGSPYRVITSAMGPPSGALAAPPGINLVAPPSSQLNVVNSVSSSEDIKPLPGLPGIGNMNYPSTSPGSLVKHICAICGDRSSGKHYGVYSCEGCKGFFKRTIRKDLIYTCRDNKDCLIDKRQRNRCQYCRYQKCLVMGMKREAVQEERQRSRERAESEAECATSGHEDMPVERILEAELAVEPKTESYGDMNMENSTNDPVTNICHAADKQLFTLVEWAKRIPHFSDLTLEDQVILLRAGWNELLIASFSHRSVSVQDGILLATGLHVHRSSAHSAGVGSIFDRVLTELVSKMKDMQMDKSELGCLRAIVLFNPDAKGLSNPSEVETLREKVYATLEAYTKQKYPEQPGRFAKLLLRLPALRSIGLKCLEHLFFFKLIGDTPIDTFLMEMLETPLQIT

[4] = target: T1, Retinoic acid receptor RXR-alpha (Homo sapiens); assay: Agonist activity at recombinant human pFA-CMV fused RXRalpha LBD expressed in HEK293T cells transfected with pFR-luciferase plasmid and pRL-SV40 plasmid incubated for 14 to 16 hrs by dual glo luciferase reporter gene assay relative to control; assay type: cell-based; conditions: HEK-293T
[5] = target: T4, Peroxisome proliferator-activated receptor gamma (Homo sapiens, UniProt P37231); assay: Agonist activity at N-terminal GFP-fused PPARgamma LBD (unknown origin) assessed as biotin-labeled SRC-1 recruitment incubated for 2 hrs by HT-FRET assay
[6] = target: T4, Peroxisome proliferator-activated receptor gamma; assay: Agonist activity at N-terminal GFP-fused PPARgamma LBD (unknown origin) assessed as biotin-labeled CBP recruitment incubated for 2 hrs by HT-FRET assay
[7] = target: T4, Peroxisome proliferator-activated receptor gamma; assay: Agonist activity at N-terminal GFP-fused PPARgamma LBD (unknown origin) assessed as biotin-labeled SRC-1 recruitment incubated for 2 hrs by HT-FRET assay relative to rosiglitazone
[8] = target: T4, Peroxisome proliferator-activated receptor gamma; assay: Agonist activity at N-terminal GFP-fused PPARgamma LBD (unknown origin) assessed as biotin-labeled CBP recruitment incubated for 2 hrs by HT-FRET assay relative to rosiglitazone

`O=C(O)Cc1cc(I)c(Oc2ccc(O)c(I)c2)c(I)c1` [TIRATRICOL] was tested, and the Activity [1] was “Active”, the Activity [2] was “Active” and the Activity [3] was “Active”. The fold change (FC) [4] was 13, the Activity [5] was “Active” and the Activity [6] was “Active”. For the same molecule, the Activity [7] was “Active” and the Activity [8] was “Active”.

Calls of active or inactive are those of the source. No cut-off for these calls is given here.
